Source: patent publication US20240034765A1, “SCG2 NEUROPEPTIDES AND USES THEREOF” (PRESIDENT AND FELLOWS OF HARVARD COLLEGE, priority 2020, published 2024)

Key:
[1] = system: PV-IN to CA1 PC; test: IN-to-CA1 PC paired recordings of unitary IPSC (uIPSC), PV-IN, after kainic acid; settings: slices prepared 24 h after exposure to kainic acid, compared with vehicle
[2] = system: CCK-IN to CA1 PC; test: IN-to-CA1 PC paired recordings of unitary IPSC (uIPSC), CCK-IN, after kainic acid; settings: slices prepared 24 h after exposure to kainic acid, compared with vehicle

In the case of C=C(C)[C@H]1CN[C@H](C(=O)O)[C@H]1CC(=O)O [kainic acid], the “amplitudes of PV-uIPSC in CA1 PCs, fold larger” value [1] is reported as 3.2 fold and the “amplitudes of CCK-uIPSC in CA1 PCs, fold smaller” value [2] is reported as 2.2 fold.
